The list shows a part of the results, in another mix than the full data. Activity calls are given as the source filed them. The call rests on the fitted dose curve; in most records, active means well fitted inhibition curve with a large enough effect; inconclusive means small, poorly fitted or top-dose-only effect; inactive means no such curve, though single readings can be large or run the other way.
Target: Pyruvate kinase PKM (Homo sapiens) (UniProt P14618)
Assay: qHTS Assay for Inhibitors of Human Muscle isoform 2 Pyruvate Kinase; further: nearly all actives have a fitted effect of over 60% in size
Settings: purified PKM2, ATP generation, Kinase-Glo luminescence
Description: NIH Chemical Genomics Center [NCGC] Matthew G. Vander Heiden, M.D., Ph.D. [Harvard Medical School, 77 Avenue Louis Pasteur, Boston, MA 02115] […] ATP generation was detected in a coupled reaction by luciferase-mediated luminescence, an ATP-dependent process. […] The enzyme was assayed at an intermediate level of activity to screen for both inhibitors and activators.
NCGC Assay Protocol Summary: Three uL of substrate mix (at r.t.) in assay buffer (50 mM Imidazole pH7.2, 50 mM KCl, 7 mM MgCl2, 0.01% Tween 20, 0.05% BSA) was dispensed into white solid bottom 1,536 well microtiter plates so that the final concentrations of substrates in the assay were 0.1 mM ADP and 0.5 mM PEP. 23 nL of compound were delivered by a pin tool and 1 uL of enzyme mix in assay buffer (4 degree Celsius) was added. Plates were incubated at room temperature for 1 hour. Two uL of detection mix (Kinase-Glo, Promega; at 4 degree Celsius protected from light) was added and luminescence read by a ViewLux (Perkin Elmer) at 5 second exposure/plate. Data were normalized to the uninhibited and AC100 inhibition (no enzyme). To monitor activation, the first column contained a titration of the activator, NCGC00031955-01 (16-point 1:2 dilutions in duplicate starting at 57 uM) and the first 16 rows of column 4 contained 57 uM of NCGC00031955-01.
Potency means the concentration at half of the fitted maximal effect.

Sequences of proteins named here, by UniProt entry; tags and fusion partners are left off.
UniProt P14618, whole entry, looked up: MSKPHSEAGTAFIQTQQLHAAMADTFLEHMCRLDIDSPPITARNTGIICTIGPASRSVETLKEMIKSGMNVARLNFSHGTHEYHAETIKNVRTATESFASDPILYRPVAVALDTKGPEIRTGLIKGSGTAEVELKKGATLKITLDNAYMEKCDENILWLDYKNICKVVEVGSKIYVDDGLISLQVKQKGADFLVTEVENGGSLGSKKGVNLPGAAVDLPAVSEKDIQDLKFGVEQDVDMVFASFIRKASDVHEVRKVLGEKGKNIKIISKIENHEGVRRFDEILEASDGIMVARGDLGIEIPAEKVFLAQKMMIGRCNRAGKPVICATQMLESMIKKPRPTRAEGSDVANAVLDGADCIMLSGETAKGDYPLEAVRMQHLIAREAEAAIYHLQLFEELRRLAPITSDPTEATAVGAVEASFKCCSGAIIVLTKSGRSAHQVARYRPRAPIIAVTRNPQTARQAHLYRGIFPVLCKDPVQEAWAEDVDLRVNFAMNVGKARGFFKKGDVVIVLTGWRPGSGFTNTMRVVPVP

| Compound | Potency |
| --- | --- |
| O=P(Nc1nccs1)(c1ccccc1)c1nc2ccccc2s1 (stereo unspecified) | active: 10 µM |

From PubChem BioAssay AID1634 (National Center for Advancing Translational Sciences (NCATS), 2009)
